The term IC50 denotes the concentration that inhibits the measured activity by half. Low values mean higher potency, high ones lower potency.

This test has as its target ectodomain of BACE (aa 1-454) (Homo sapiens (Human), UniProt P56817). The experiment in a line: BACE FRET assay (Example 435; assay format A or B). Conditions: footnote b: determined according to protocols described in Example 435. The test is classed as biochemical.

In the case of `CN1C(=O)C2(N=C1N)c1cc(-c3cccnc3)ccc1CC21CCc2ccccc2CC1` (stereo not shown) [Compound 418], half-maximal inhibition (IC50) was put at 8.7 nM.

The record behind these values is US10336717B2, “Inhibitors of beta-secretase” (Vitae Pharmaceuticals, Inc., priority 2009, dated 2019).
